Experiments:
caspase-1 = caspase-1 (Homo sapiens, UniProt P29466); assay: Screening on caspases inhibiting activity (recombinant enzyme, fluorogenic AMC substrate); format: biochemical; details: Irreversible Inhibitors
Procedure: (§1) In the present experiment, recombinant caspases were purified from a transformed bacterium after human caspase genes were cloned into the expression vector pET, and then used in the experiment (Thornberry, N.A. et .al. Nature, 1992, 356, 768. Thombeny, N.A. Methods in Enzymology, 1994, 615.).
(§2) Enzymatic activity was measured by a known procedure (Walker N.P.C. et al., Cell 1994, 78, 343). Briefly, 10 ng of recombinant protein was mixed with 50 mM Tris(pH 7.0), 1mM DTT, 0.5 mM EDTA, 10% Glycerol buffer containing 1∼100 µM of enzyme substrate, Ac-YVAD-AMC or Ac-DEVD-AMC and then the changes by isolated AMC at 37°C were recorded. The inhibitory activity for caspases was calculated from the early enzyme reaction rate by measuring the changes with fluorescence excited at […] and emitted at 460 nm (Range; Ki<100nM).

The chains behind the UniProt entries cited, without tags or fusion partners. Residues count along the entry.
UniProt P29466, 120-297 limits assumed: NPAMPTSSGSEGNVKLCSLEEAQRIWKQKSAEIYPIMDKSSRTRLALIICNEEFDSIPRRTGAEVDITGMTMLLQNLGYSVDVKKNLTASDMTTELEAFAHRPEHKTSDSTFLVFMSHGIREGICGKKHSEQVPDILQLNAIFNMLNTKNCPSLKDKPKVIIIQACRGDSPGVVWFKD
UniProt P29466, 317-404 limits assumed: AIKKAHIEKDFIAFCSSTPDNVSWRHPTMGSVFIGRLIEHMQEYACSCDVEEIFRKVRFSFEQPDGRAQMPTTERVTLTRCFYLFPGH
UniProt P42574, 29-175 limits assumed: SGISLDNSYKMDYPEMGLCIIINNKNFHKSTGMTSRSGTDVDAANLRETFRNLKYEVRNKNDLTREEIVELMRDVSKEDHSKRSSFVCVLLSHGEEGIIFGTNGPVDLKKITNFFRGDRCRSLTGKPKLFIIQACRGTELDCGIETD
UniProt P42574, 176-277 limits assumed: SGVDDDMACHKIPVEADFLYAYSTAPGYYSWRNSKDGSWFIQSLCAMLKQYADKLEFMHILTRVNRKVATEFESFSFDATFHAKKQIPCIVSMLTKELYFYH

caspase-3 = caspase-3 (Homo sapiens, UniProt P42574); assay: as above; format: biochemical; details: Irreversible Inhibitors
Procedure: as §1, §2

Kobs/[I] for caspase-1 (caspase-1): 294000 M⁻¹ s⁻¹
Kobs/[I] for caspase-3 (caspase-3): 132 M⁻¹ s⁻¹
SMILES: CC(C)[C@H](NC(=O)Cc1c[nH]c2ccccc12)C1=NOC(Cc2ccccc2)(C(=O)N[C@@H](CC(=O)O)C(=O)COC(=O)c2c(Cl)cccc2Cl)C1 (single isomer, unassigned)

From patent EP1212309B1, “CASPASE INHIBITOR” (LG Chem Investment, Ltd., priority 1999, dated 2001)
